# Results: ChEMBL document CHEMBL5346948, “Expanding Chemical Probe Space: Quality Criteria for Covalent and Degrader Probes” (J Med Chem, 2023)
# System: GTPase KRas (Homo sapiens), P01116 [G12C]
# Test: Binding affinity to KRAS G12 mutant (unknown origin) assessed as kinact/Ki ratio
smiles,measurement,value
CCn1c(-c2cccnc2[C@H](C)OC)c2c3cc(ccc31)N1CCO[C@@H](C[C@H](NC(=O)[C@H](C(C)C)N(C)C(=O)C3(F)CCN(C(=O)C#CC(C)(C)N(C)C)CC3)C(=O)N3CCC[C@H](N3)C(=O)OCC(C)(C)C2)C1,Ratio,289000 s⁻¹ M⁻¹
